Here are results for three substances from patent publication US20250325555A1, “Method of Treating Obesity with a Luteinizing Hormone Receptor Agonist” (ICAHN SCHOOL OF MEDICINE AT MOUNT SINAI, priority 2022, published 2025).

Protein sequences, listed by entry. Tags and fused reporters are not part of them. Residues count along the entry.
UniProt P30730, 27-700: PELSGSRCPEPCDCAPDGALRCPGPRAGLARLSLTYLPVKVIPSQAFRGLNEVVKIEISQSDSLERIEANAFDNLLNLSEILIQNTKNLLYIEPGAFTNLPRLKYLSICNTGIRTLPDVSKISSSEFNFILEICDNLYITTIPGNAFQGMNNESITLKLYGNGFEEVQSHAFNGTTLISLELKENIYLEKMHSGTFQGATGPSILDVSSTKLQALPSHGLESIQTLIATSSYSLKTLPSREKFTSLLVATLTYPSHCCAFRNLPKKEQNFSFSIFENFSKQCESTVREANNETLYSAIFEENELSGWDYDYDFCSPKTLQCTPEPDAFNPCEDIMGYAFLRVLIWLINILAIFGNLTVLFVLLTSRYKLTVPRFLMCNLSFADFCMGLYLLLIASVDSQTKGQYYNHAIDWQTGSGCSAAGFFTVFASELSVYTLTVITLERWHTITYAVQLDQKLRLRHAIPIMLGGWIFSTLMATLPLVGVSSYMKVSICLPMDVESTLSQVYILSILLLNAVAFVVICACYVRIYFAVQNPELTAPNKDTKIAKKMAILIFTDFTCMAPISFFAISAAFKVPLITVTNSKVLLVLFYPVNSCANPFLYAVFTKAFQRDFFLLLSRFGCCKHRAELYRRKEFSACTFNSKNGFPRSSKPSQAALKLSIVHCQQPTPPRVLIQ

“Also recorded” adds a separate entry of the source.

In assay [1] the test system is C57BL/6 mice fed on high-fat diet. In words: LH or hCG in C57BL/6 male mice on high-fat diet, 6 weeks. The assay is classed as in vivo. As to conditions: 250 ng/mouse i.p. twice-a-week. Here is the method:
Fourteen-week-old C57BL/6 mice (20 mice/group) were treated with intraperitoneal injections of vehicle (200 μL saline), LH (250 ng/mouse) or hCG (250 ng/mouse), and fed on high-fat diet (TestDiet 0056833) for 6 weeks.
(§1) To address the confounding actions of high testosterone on bodyfat, the study was repeated in the presence of flutamide (7.5 mg, 60-day low release pellets).

Assay [2] deals with differentiated 3T3-L1 adipocytes. In words: RNAseq of fat genes in differentiated 3T3-L1 adipocytes. As to conditions: 1 nM, 12 hours. The assay is classed as cell-based, mouse. Here is the method:
(§2) RNAseq was performed to measure the log2(fold change) for Lep, Cebpb, Cebpa, Ucp2, and Ppargc1b fat genes in differentiated 3T3-L1 adipocytes after treatment with 1 nM LH or hCG for 12 hours.

The test system of assay [3] is organoids derived from 3T3-L1 cells. Kind of assay: adipose organoids derived from 3T3-L1 cells, thickness of differentiating cell layer. It is filed as cell-based, mouse. As to conditions: exposed for 3 days, further differentiated 7 days. The source says: (§3) In order to study the mechanism of LHCGR activation on body fat, 3T3.L1 pre-adipocytes and adipose organoids were used. Oil Red 0 staining can be used to mark lipid-containing vacuoles and quantify cell lipid content. […] Organoids were derived from 3T3-L1 cells following 8 days culture on Nunclon Sphera dishes, and exposed to LH, hCG or ORG 43553 for 3 days. They were allowed to further differentiate for 7 days, after which paraffin sections were stained with H&E, and LHCGR expression was confirmed by immunostaining and RNAscope™. The thickness of the “differentiating cell layer” was measured with QuPath-0.2.3.

For a further assay, the system named is Lhcgr-/- mice. In words: LH in Lhcgr-/- mice on high-fat diet. The assay is classed as in vivo, mouse. To be noted: LH 250 ng i.p. Here is the method:
as §1

In the next assay the target is T1, adipose LHCGR (Mus musculus, UniProt P30730).
T1 construct: host or cells: differentiated 3T3-L1 adipocytes
In words: ERK1/2 phosphorylation in differentiated 3T3-L1 adipocytes (Western blot). To be noted: for ERK1/2 phosphorylation: differentiated 3T3-L1 adipocytes; for ERK1/2 phosphorylation with LHCGR siRNA knockdown: siLhcgr 3T3-L1 cells. The assay is classed as cell-based. Here is the method: CELL CULTURE: Differentiated 3T3-L1 preadipocytes (Zen-Bio) were treated with hCG or LH for 20 minutes.
siRNA KNOCKDOWN: Lentiviral vectors expressing Lhcgr siRNA (ABM 2649609) or siControl (ABM LVP015-G) were used per manufacturer's recommendation.
WESTERN BLOTTING: Proteins were blotted with commercial antibodies (Cell Signaling, Phospho-ERK1/2, 9101S; ERK1/2, 4695S, 1:5000).
A general note: Immunoblotting shows a protein as a band on a membrane.

The subject of a further assay is 3T3-L1 adipocytes. Kind of assay: oil droplet accumulation (Oil Red O staining) in 3T3-L1 adipocytes. It is filed as cell-based, mouse.
From the text: as §3

Assay [4] deals with C57BL/6 mice fed on high-fat diet. Kind of assay: hCG with flutamide or placebo in C57BL/6 mice on high-fat diet. It is filed as in vivo, mouse. The method, then:
In order to evaluate the anti-obesity action of LH/hCG relative to testosterone levels, flutamide, an androgen receptor antagonist, was used to block the increase in testosterone after LH/hCG treatment in mice. Fourteen-week-old C57BL/6 mice (15 mice/group) underwent the following intraperitoneal injections—Group I: vehicle with placebo (placebo 60-day release pellets); Group II: vehicle with flutamide (7.5 mg 60-day release pellets); Group III: hCG (250 ng/mouse) with placebo; Group IV: hCG with flutamide. Mice were fed on high-fat diet for 6 weeks. […] A shown in FIG. 5E, mice treated with hCG had lower iWAT and gWAT weight in both flutamide and placebo groups.
as §1

In a further assay the target is T2, LHCGR in adipose tissue (Mus musculus, UniProt P30730).
T2 construct: from tissue; host or cells: mouse white adipose tissue (iWAT/sWAT, gWAT) in vivo, C57BL/6 / wild-type mice
Kind of assay: binding of AlexaFluor-488-labeled hCG in vivo. As to conditions: injected intraperitoneally. Here is the method:
hCG BINDING: Recombinant hCG was conjugated with Alexa Fluor 488 Microscale Protein Labelling Kit (Invitrogen A30006) and injected i.p. (0.45 μg).
The binding of labelled hCG was studied in vivo. […] Complementarily, ^89Zr-LH was injected intravenously, followed two hours later by sacrifice and perfusion with PBS before organ retrieval and γ counting.

The test system of assay [5] is differentiated 3T3-L1 cells. Kind of assay: binding of AlexaFluor-488-labeled hCG to differentiated 3T3-L1 cells. Further details: species or system mouse. Here is the method:
as §2

The mark [6] stands for this setting: hCG 250 ng/mouse in the presence of flutamide, high-fat diet.
[7] abbreviates: hCG 250 ng/mouse, both flutamide and placebo groups.

Turning to LH: Luteinizing hormone (LH), in assay [1], the body fat mass entry is given as “markedly reduced body fat mass; also recorded: markedly reduced body fat accrual”, the glucose tolerance entry is on record as “no difference”, the lean mass entry is on record as “increased lean mass” and the serum leptin levels entry was “lower leptin levels”. Further, in assay [1], the total mass entry is on record as “decreased total mass”. In addition, the “fat genes (Lep, Cebpb, Cebpa, Ucp2, Ppargc1b) log2(fold change) by RNAseq” value in assay [2] is reported as “downregulated”. Moreover, the “differentiated layer of organoids (thickness) compared to vehicle-treated organoids” value in assay [3] is recorded as “substantial reduction”. Further, in the assay with Lhcgr-/- mice, the fat accrual entry is “failed to inhibit fat accrual”. Besides, in the assay with adipose LHCGR, the ERK1/2 phosphorylation entry is listed as “induced ERK1/2 phosphorylation in differentiated 3T3L1 adipocytes in a dose-dependent manner; also recorded: rapidly induced ERK1/2 phosphorylation in a concentration-dependent manner” and the “ERK1/2 phosphorylation with LHCGR siRNA knockdown” value is reported as “no signal”.

Consider “hCG: human chorionic gonadotropin (hCG); recombinant hCG”, for which, in [1], the body fat mass result is listed as “lower fat mass; also recorded: markedly reduced body fat accrual”, the glucose tolerance entry is given as “no difference”, the iWAT weight result is reported as “lower iWAT weight” and the serum leptin levels entry is reported as “lower leptin levels”. For the same substance, the “oil droplet accumulation (Oil Red O staining)” value in the assay on 3T3-L1 adipocytes (3T3.L1 adipocytes, 1 nM, 12 hours) is given as “reduced oil droplet accumulation”. Also, the “oil droplet accumulation (Oil Red O staining)” value in the assay on 3T3-L1 adipocytes (differentiating 3T3-L1 adipocytes) is on record as “reduced oil droplet accumulation”. Moreover, the “fat genes (Lep, Cebpb, Cebpa, Ucp2, Ppargc1b) log2(fold change) by RNAseq” value in assay [2] is on record as “downregulated”. Also, in assay [3], the “differentiated layer of organoids (thickness) compared to vehicle-treated organoids” value is recorded as “substantial reduction”. Also, the diet-induced fat mass result in assay [4] (hCG 250 ng/mouse in the presence of flutamide (7.5 mg 60-day release pellets), high-fat diet) was “reduced diet-induced fat mass; also recorded: lean phenotype persisted”. In assay [4] (setting [6]), the lean mass result was “but not lean mass” and the total mass result is “but not lean mass (B) or total mass”. In addition, in assay [4] (setting [7]), the gWAT weight result is listed as “lower”, the iWAT weight entry was “lower” and the leptin levels result is reported as “lower leptin levels”. In the assay with adipose LHCGR, the ERK1/2 phosphorylation entry is given as “induced ERK1/2 phosphorylation in differentiated 3T3L1 adipocytes in a dose-dependent manner; also recorded: rapidly induced ERK1/2 phosphorylation in a concentration-dependent manner” and the “ERK1/2 phosphorylation with LHCGR siRNA knockdown” value is listed as “abrogated; also recorded: no signal”.

Take “AlexaFluor-488-labeled hCG: Recombinant hCG conjugated with Alexa Fluor 488”: in the assay with LHCGR in adipose tissue, the “binding to fat depots in LHCGR-null mice” value is recorded as “but not”; the “binding to fat depots in wildtype mice” value is “localized in mouse iWAT and gWAT; also recorded: bound to gonadal and subcutaneous fatpads”. In assay [5], the “binding after pretreatment with unlabeled hCG” value is listed as “competitively displaced” and the “binding to differentiated 3T3-L1 cells” value is recorded as “specific”.
